# Target: T1, glucagon receptor (Homo sapiens, UniProt P47871)
# By UniProt entry, the sequences of proteins in these tests, tags left out. Residues count along the entry.
# UniProt P47871, 26-477: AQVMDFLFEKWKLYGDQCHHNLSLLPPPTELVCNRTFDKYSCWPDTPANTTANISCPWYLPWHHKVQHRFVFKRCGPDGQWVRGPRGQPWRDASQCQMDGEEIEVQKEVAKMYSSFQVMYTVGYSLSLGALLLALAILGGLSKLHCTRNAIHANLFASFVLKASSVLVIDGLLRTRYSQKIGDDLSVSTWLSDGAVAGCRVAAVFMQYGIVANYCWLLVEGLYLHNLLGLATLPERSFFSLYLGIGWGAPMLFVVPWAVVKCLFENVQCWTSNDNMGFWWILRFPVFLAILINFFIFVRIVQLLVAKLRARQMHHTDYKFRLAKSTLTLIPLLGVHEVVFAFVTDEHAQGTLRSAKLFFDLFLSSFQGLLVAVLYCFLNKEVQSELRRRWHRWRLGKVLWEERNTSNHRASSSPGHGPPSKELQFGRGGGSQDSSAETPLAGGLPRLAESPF
# T1 construct: expressed in transfected cells; host or cells: Chinese Hamster Ovary cells (CHO-HGR), membranes
# Assay: glucagon receptor binding assay (125I-glucagon, CHO-HGR membranes)
# Conditions: 60 min at room temperature
# Experimental: The affinity for the glucagon receptor of compounds of the present invention is determined by the glucagon receptor binding assay. Membranes were prepared from Chinese Hamster Ovary cells expressing the glucagon receptor (CHO-HGR) by scraping the cells into hypotonic lysis buffer (10 mM Tris, pH 7.4, 2 mM EDTA, 5 mM MgCl2 and 1 mM PMSF) and subjecting the material to Polytron homogenization. Nuclei were removed by a 15-min 800×g centrifugation step conducted at 4° C. Membranes containing the receptor were collected by centrifugation at 15,000×gfor 15 min at 4° C. The membranes were washed once in lysis buffer and suspended in 0.25 M sucrose, 10 mM Tris, 5 mM EDTA, pH 7.4. The membranes were used in ligand binding studies as reported (Yoo-Warren, H., Willse, A. G., Hancock, N., Hull, J., McCaleb, M., and Livingston, J. Regulation of Rat Glucagon Receptor Expression. Biochem. Biophysical Res. Commun. 1994, 205, 347-353). In brief, 10 ug of membrane protein was incubated in 130 μl of binding buffer that consisted of 20 mM Tris, […], 1 mM EDTA, 1 mg/ml BSA, and 1 mg/ml bacitracin. The membrane suspension was placed in each well of a 96-well filtration plate (glass fiber type C, Millipore). […] Following the addition of test compound, 50 μl of ^125 I-glucagon (9 fmol) (NEN) was added to each well. Control wells contained membranes, 0.5% DMSO (solvent for test compounds), radiolabeled glucagon without and with excess native glucagon (1 μM) to establish nonspecific binding. The plates were incubated for 60 min at room temperature, and then filtered on a Mllipore vacuum apparatus. Following a wash step with ice-cold PBS/0.1% BSA, the filters were punched into test tubes, and the membrane bound radioactivity was determined.
row,Structure (SMILES),IC50 [nM]
1,"CCCc1c(C(C)C)nc(C(C)C)c(C(C)O)c1-c1ccc(F)cc1 (single isomer, unassigned) [Example 103]",1900
2,"CCCCCCc1c(C(C)C)nc(C(C)C)c(C(C)O)c1-c1ccc(F)cc1 (single isomer, unassigned) [Example 110, 2,6-Diisopropyl-3-(1-hydroxyethyl)-4-(4-fluorophenyl)-5-hexylpyridine]",2000
3,"CCCc1c(C(C)C)nc(C(C)C)c(C(C)O)c1-c1ccc(F)cc1 (single isomer, unassigned; (+)) [Example 224, (+)-2,6-Diisopropyl-3-(1-hydroxyethyl)-4-(4-fluorophenyl)-5-propyl-pyridine]",110
4,"CCCc1c(C(C)C)nc(C(C)C)c(C(C)O)c1-c1ccc(F)cc1 (single isomer, unassigned; (+)) [Example 222, (+)-2,6-Diisopropyl-3-(1-hydroxyethyl)-4-(4-fluorophenyl)-5-propyl-pyridine]",110

# Next, values leading:
row,IC50 [nM],Structure (SMILES)
1,110,"CCCc1c(C(C)C)nc(C(C)C)c(C(C)O)c1-c1ccc(F)cc1 (single isomer, unassigned; (+)) [Example 102, (+)-2,6-Diisopropyl-3-(1-hydroxyethyl)-4-(4-fluorophenyl)-5-propyl-pyridine]"
2,110,"CCCc1c(C(C)C)nc(C(C)C)c(C(C)O)c1-c1ccc(F)cc1 (single isomer, unassigned; (+)) [Example 223, (+)-2,6-Diisopropyl-3-(1-hydroxyethyl)-4-(4-fluorophenyl)-5-propyl-pyridine]"
